Laboratory results taken from patent US20240286998A1, “F[…], ANALOGUES THEREOF, AND METHODS USING SAME” (Saint Joseph's University, priority 2021, published 2024).

Chains of the proteins cited; added tags and fusions are not shown. Residues count along the entry.
UniProt P28223, whole entry: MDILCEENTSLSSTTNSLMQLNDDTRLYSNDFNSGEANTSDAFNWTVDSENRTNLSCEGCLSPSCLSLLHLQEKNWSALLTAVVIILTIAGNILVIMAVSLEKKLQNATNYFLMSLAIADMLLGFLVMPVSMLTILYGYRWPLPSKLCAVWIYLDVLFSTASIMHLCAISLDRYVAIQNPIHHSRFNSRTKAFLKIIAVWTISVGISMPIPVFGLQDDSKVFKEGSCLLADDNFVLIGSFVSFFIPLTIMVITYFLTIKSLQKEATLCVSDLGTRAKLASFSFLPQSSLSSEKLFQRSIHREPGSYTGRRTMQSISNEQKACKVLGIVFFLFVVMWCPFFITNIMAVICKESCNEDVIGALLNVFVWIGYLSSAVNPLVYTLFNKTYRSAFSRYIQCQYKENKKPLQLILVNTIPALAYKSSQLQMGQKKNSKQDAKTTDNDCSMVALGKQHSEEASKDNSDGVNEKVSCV
UniProt P28335, 33-458 limits assumed: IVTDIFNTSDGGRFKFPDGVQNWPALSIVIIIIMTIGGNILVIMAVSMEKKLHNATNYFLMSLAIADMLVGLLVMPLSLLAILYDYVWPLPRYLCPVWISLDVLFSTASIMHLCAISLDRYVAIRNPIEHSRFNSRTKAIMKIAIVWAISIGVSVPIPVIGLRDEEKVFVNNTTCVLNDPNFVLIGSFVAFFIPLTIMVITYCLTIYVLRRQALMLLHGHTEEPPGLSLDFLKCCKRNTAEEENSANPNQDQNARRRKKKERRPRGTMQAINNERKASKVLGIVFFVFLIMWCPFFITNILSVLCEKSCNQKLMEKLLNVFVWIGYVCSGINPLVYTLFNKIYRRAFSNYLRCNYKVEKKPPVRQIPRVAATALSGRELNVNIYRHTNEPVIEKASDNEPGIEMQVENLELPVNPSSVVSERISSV
UniProt P41595, whole entry: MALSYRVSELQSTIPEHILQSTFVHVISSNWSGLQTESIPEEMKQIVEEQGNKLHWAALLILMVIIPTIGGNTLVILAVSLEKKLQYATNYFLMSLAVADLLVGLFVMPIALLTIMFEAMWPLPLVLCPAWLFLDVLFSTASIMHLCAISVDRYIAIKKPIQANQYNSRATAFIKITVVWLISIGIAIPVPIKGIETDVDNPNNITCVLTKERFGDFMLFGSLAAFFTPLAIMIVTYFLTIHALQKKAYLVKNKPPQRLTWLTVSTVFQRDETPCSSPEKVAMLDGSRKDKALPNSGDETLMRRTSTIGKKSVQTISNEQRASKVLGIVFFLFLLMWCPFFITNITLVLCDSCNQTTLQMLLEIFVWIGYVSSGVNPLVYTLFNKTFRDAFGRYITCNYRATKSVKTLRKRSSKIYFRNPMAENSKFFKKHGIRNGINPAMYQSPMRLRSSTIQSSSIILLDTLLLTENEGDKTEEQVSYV
UniProt P08908, whole entry: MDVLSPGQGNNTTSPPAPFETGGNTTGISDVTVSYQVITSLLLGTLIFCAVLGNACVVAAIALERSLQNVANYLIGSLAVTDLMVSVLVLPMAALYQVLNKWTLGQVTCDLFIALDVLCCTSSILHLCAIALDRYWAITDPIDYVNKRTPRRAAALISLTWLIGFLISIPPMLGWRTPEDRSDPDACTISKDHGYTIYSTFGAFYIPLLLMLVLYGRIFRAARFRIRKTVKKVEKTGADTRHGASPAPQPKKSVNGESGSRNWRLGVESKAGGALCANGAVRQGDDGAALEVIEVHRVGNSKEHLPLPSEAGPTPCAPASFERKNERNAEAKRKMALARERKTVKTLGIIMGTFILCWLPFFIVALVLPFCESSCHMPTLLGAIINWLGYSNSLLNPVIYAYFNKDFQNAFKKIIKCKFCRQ

Assays:
Serotonin 5-HT2A (human) = Serotonin 5-HT2A (human) (Homo sapiens (Human), UniProt P28223); details: 1 nM [3H]-ketanserin, Cheng-Prusoff, N=1-3
5-HT2C = 5-HT2C (Homo sapiens (Human), UniProt P28335); details: IA = Inactive; N=1-3
5-HT2B = 5-HT2B (Homo sapiens (Human), UniProt P41595); details: IA = Inactive; N=1-3
5-HT2A = 5-HT2A (Homo sapiens (Human), UniProt P28223); details: IA = Inactive; N=1-3
5-HT1A = 5-HT1A (Homo sapiens (Human), UniProt P08908); details: cAMP inhibition, 0.2 μM isoproterenol; IA = Inactive

SMILES: CCN(CC)CCc1c[nH]c2ccc(F)cc12
- 5-HT2A pKi ± SEM (Serotonin 5-HT2A (human)): 6.12
- 5-HT2C-Ca2+ FLUX Emax (% 5-HT) (5-HT2C): 109.6 ± 2.3 % 5-HT
- 5-HT2C-Ca2+ FLUX pEC50 (5-HT2C): 8.45 ± 0.06
- 5-HT2B-Ca2+ FLUX Emax (% 5-HT) (5-HT2B): 92.3 ± 1.0 % 5-HT
- 5-HT2B-Ca2+ FLUX pEC50 (5-HT2B): 8.69 ± 0.04
- 5-HT2A-Ca2+ FLUX Emax (% 5-HT) (5-HT2A): 103.6 ± 0.8 % 5-HT
- 5-HT2A-Ca2+ FLUX pEC50 (5-HT2A): 8.71 ± 0.03
- 5-HT1A-cAMP Emax (% 5-HT) (5-HT1A): 92.8 ± 1.8 % 5-HT
- 5-HT1A-cAMP pEC50 (5-HT1A): 6.84 ± 0.05
